Measured values from PubChem BioAssay AID827 (SRMLSC, 2007).
This is a selection; strong and weak results do not stand in their true shares. Active and inactive are the calls of the source.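 How the source made its calls: active means viability at or below a set limit, 4 SD under the median of all tested compounds (cut at about 3.7% in these data); inactive means the rest.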

assay: viability loss in PTEN-deleted colon tumor cells – cell-based, HCT116, CellTiter-Glo, primary screen (AID 827); details: HCT116 PTEN-null viability, 60 h, at 10 µM, active compounds read low;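 further: PTEN knockout HCT116 line with beta catenin targeted HCT116 as companion control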

Compound | viability
COc1ccc(NC2CCN(CCc3ccccc3)CC2)c(OC)c1 | inactive: 103%
O=C(OC1CN2CCC1CC2)C1c2ccccc2Oc2ccccc21 (stereo not drawn) | inactive: 93%
O=C(NCC1(N2CCOCC2)CCCCC1)c1cc2ccccc2o1 | inactive: 82.9%
N#CC1(Nc2ccccc2)CCN(CCc2ccccc2)CC1 | inactive: 98%
O=C(NCC1(N2CCOCC2)CCCCC1)c1cc(=O)[nH]c2ccccc12 | inactive: 92.9%
CN1CCN(CCOC(=O)C(O)(c2ccccc2)c2ccccc2)CC1 | inactive: 104%
c1ccc(CN2CCC(Nc3ccccc3)CC2)cc1 | inactive: 95.4%
O=C(OC1CN2CCC1CC2)C1c2ccccc2C=Cc2ccccc21 (stereo not drawn) | inactive: 65.2%
N/C(=N\O)c1c(N)no[n+]1[O-] | inactive: 89.9%
CCOc1ncccc1C(=O)NCC1(N2CCOCC2)CCCCC1 | inactive: 97.5%
CCC(CO)(C(=O)OC1CN2CCC1CC2)c1ccccc1 (stereo not drawn) | inactive: 109%
Fc1ccccc1NC1CCN(Cc2ccccc2)CC1 | inactive: 95.3%
CCN1CCC(Nc2cccc(F)c2)CC1 | inactive: 105%
